Values quoted from earlier work in patent US20040122104A1 (Collegium Pharmaceutical, Inc., priority 2002, published 2004).

Settings: 100 mg/day twice daily

For `CCN(CC)C(=O)C1(c2ccccc2)CC1CN` (stereo not shown) [milnacipran, Milnacipran], the “spontaneously reported adverse events: constipation” value is given as 10%.
